This is an account of results in BindingDB's records for patent US10112937 (Janssen Pharmaceutica, 2018).

Chains of the proteins cited; added tags and fusions are not shown. Lines headed by an entry give the natural chain unless they say otherwise; changes in a name come on top.
UniProt Q99572: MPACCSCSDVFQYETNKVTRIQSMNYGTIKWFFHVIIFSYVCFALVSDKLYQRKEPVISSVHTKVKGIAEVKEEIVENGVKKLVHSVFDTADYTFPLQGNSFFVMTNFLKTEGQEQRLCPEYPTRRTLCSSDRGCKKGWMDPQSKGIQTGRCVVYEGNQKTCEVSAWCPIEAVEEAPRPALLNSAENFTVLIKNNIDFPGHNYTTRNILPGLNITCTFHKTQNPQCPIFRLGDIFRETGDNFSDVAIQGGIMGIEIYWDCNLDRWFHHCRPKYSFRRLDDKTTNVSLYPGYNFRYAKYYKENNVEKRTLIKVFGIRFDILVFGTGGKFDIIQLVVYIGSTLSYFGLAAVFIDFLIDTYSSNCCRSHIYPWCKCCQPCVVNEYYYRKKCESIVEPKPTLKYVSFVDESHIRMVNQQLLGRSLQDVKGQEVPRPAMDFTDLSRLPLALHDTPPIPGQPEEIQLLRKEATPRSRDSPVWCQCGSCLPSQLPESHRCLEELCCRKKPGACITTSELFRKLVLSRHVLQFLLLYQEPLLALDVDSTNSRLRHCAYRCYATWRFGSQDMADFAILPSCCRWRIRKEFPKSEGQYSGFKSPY

Molecules are shown by their SMILES.

In this assay the target is P2X purinoceptor 7 (Homo sapiens, UniProt Q99572). The assay can be described thus: Cells were seeded at a density of 25000 cells/well (96-well clear bottom black walled plates) in 100 μl volume/well. On the day of the experiment, cell plates were washed with assay buffer, containing (in mM): 130 NaCl, 2 KCl, 1 CaCl2, 1 MgCl2, 10 HEPES, 5 glucose; pH 7.40 and 300 mOs. After the wash, cells were loaded with the Calcium-4 dye (Molecular Device) and incubated in the dark for 60 minutes. Test compounds were prepared at 250× the test concentration in neat DMSO. Intermediate 96-well compound plates were prepared by transferring 1.2 μL of the compound into 300 μL of assay buffer. A further 3× dilution occurred when transferring 50 μL/well of the compound plate to 100 μL/well in the cell plate. Cells were incubated with test compounds and dye for 30 minutes. Calcium dye fluorescence was monitored in FLIPR as the cells were challenged by adding 50 μL/well of BzATP (final concentration is 250 μM BzATP (human and rat)). The fluorescence change was measured 180 seconds after adding the agonist. Peak fluorescence was plotted as a function of BzATP concentration using Origin 7 software. Conditions: pH 7.4.

What is called IC50 is the midpoint of a concentration-inhibition curve. Consider `Cc1cc(C)nc(-n2nnc3c2C=CN(C(=O)c2cccc(Cl)c2Cl)C3C)n1` (stereo unspecified) [US10112937, Example 179], for which the 50% inhibitory concentration (IC50) turned out to be 1.06 µM.
